Several values for one entry are separate records, joined by “and”; a condition that tells them apart may be missing. Identical values can stand only once.

As usually defined, the Ki is the equilibrium dissociation constant of an inhibitor or competing ligand from its target. A low value points to tighter binding. In general, IC50 refers to the concentration that gives 50% inhibition. Low values mean higher potency, high ones lower potency.

For experiment [1], the system named is AR nuclear translocation in HS-HEK293 cells. The settings on record: 0.3 or 1.0 μM test compound with 0.3 nM testosterone.
Experiment [2] concerns the target T1, wtAR isolated from rat ventral prostates (Rattus norvegicus, UniProt P15207).
T1 sequence (P15207 1-902): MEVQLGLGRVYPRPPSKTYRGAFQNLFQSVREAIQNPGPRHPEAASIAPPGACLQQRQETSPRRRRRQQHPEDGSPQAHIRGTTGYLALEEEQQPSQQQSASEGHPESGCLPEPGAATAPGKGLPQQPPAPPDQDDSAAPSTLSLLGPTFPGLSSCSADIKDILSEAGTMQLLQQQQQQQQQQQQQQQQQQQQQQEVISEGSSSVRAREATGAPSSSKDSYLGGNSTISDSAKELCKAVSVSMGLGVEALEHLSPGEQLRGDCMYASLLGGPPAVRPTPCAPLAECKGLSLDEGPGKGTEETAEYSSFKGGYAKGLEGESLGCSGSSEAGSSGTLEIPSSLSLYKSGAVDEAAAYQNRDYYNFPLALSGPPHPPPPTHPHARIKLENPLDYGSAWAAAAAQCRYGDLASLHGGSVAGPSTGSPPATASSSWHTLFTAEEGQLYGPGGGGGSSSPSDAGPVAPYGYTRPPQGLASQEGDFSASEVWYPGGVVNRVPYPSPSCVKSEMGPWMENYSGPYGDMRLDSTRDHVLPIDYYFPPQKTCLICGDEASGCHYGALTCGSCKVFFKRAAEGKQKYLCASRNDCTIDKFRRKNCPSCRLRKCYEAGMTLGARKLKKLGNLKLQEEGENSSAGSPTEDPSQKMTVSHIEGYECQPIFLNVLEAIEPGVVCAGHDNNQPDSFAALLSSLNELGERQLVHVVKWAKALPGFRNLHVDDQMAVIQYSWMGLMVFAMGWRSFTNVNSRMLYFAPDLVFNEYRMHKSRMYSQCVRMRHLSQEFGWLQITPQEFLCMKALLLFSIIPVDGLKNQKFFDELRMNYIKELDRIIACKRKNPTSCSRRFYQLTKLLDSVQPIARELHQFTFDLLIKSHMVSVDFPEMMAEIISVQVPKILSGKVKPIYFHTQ
The experiment is described as follows: biochemical. The conditions noted are these: inhibition constant (Ki), AR binding, competition with 1 nM [3H]mibolerone, rat ventral prostate cytosol, overnight, 0–4 °C.

In the next experiment the target is human AR (hAR) (Homo sapiens, UniProt P10275). Briefly: cell-based.
The target of a further experiment is AR(T877A) (Homo sapiens, UniProt P10275, T878A). The experiment is described as follows: cell-based.

For the compound `CNC(=O)c1ccc(N2C(=S)N(c3cnc(C#N)c(C(F)(F)F)c3)C(=O)C23CCC3)cc1F` [ARN-509, reference compound], in experiment [1], the “effect on testosterone-induced nuclear translocation of AR” value is on record as “inhibit”. In experiment [2], this compound returned a Ki of 93 nM.
Turning to `CC(=O)c1cc(C(=O)N[C@@H](C)Cn2ccc(-c3ccc(C#N)c(Cl)c3)n2)[nH]n1` [ORM-15341], the Ki in experiment [2] was 8 nM and 8.4 nM. The results for the IC50 against human AR (hAR) and against AR(T877A) were 38 nM and 700 nM, respectively.

The values are drawn from paper PMC4490394 (Scientific Reports, 2015).
